Measured values published in ChEMBL document CHEMBL4038316, “Enantioselective Synthesis and in Vivo Evaluation of Regioisomeric Analogues of the Antimalarial Arterolane” (J Med Chem, 2017).

Legend:
Type in all cases: functional
Plasmodium berghei [1] = assay: Antiplasmodial activity against Plasmodium berghei infected in Swiss Webster mouse assessed as cure rate at 6 mg/kg/day administered for 4 days via oral gavage starting at 1 hr post infection measured after 30 days relative to control
Plasmodium berghei [2] = assay: Antiplasmodial activity against Plasmodium berghei infected in Swiss Webster mouse assessed as cure rate at 40 mg/kg/day administered for 1 day via oral gavage starting at 1 hr post infection measured after 30 days relative to control
Plasmodium berghei [3] = assay: Antiplasmodial activity against Plasmodium berghei infected in Swiss Webster mouse assessed as cure rate at 80 mg/kg/day administered for 1 day via oral gavage starting at 1 hr post infection measured after 30 days relative to control

Structure (SMILES): O=C(C[C@@H]1CCC[C@]2(C1)OOC1(O2)C2CC3CC(C2)CC1C3)N1CCCCC1 (some centres undefined)
- Activity (Plasmodium berghei [1]): 0%

Structure (SMILES): c1cc([C@H]2CC[C@]3(CC2)OO[C@]2(O3)C3CC4CC(C3)CC2C4)ccc1OCCN1CCOCC1 [ARTEFENOMEL]
- Activity (Plasmodium berghei [2]): 100%
- Activity (Plasmodium berghei [3]): 100%

Structure (SMILES): NC(=O)CNC(=O)C[C@@H]1CCC[C@]2(C1)OOC1(O2)C2CC3CC(C2)CC1C3 (some centres undefined)
- Activity (Plasmodium berghei [1]): 0%
